Results taken from patent US9376380B2 (University of Pittsburgh—Of the Commonwealth System of …, priority 2011, dated 2016).

Chains of the proteins cited; added tags and fusions are not shown.
UniProt P21554, whole entry: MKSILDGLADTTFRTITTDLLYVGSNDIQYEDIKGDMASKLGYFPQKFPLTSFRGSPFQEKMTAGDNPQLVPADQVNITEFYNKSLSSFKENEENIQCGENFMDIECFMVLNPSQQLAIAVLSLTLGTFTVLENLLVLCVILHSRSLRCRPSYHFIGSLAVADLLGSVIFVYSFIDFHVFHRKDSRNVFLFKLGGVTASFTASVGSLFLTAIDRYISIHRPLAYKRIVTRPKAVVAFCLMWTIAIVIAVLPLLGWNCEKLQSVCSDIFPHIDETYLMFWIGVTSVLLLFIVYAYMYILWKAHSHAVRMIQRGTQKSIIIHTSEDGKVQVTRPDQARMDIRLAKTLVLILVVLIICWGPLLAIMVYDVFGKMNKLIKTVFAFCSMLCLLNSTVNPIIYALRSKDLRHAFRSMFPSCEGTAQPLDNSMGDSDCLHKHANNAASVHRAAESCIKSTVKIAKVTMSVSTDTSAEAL
UniProt P34972, whole entry: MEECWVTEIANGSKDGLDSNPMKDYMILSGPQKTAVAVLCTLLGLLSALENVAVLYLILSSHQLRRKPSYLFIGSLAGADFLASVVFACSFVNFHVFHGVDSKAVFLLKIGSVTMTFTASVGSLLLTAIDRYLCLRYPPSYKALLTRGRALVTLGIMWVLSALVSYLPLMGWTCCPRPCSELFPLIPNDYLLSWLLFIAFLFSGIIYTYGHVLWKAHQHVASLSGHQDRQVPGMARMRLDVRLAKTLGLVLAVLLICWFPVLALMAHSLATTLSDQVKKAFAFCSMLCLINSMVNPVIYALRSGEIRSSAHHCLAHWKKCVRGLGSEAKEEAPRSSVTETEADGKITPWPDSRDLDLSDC

Key:
CB1 receptor = CB1 receptor (Homo sapiens, UniProt P21554); assay: [3H]CP-55,940 radioligand competition binding, CB1
CB2 receptor = CB2 receptor (Homo sapiens, UniProt P34972); assay: [3H]CP-55,940 radioligand competition binding, CB2; design: host or cells: cell membrane preparations; settings: for Ki: [3H]CP-55,940 displacement; for SI: selectivity index for CB2: Ki(CB1)/Ki(CB2) ratio

Row | SMILES | Ki (CB2 receptor) | SI: selectivity index for CB2 (CB2 receptor) | further results
1 | CCN(CC)c1ccc(CN(C23CC4CC(CC(C4)C2)C3)S(=O)(=O)c2ccc(OC)cc2)cc1 [Compound 59, N-(3r)-Adamantan-1-yl)-N-(4-(diethylamino)benzyl)-4-methoxybenzenesulfonamide] |  |  | Ki (CB1 receptor): 7300 nM
2 | CCCCCCCN(Cc1ccc(N(CC)CC)cc1)S(=O)(=O)c1ccc(C)cc1 [Compound 67, N-(4-(Diethylamino)benzyl)-N-heptyl-4-methylbenzenesulfonamide] | 2740 nM |  | 
3 | CCN(CC)c1ccc(CN(c2ccc(Cl)cc2)S(=O)(=O)c2ccccc2)cc1 [Compound 81, N-(4-Chlorophenyl)-N-(4-(diethylamino)benzyl)benzenesulfonamide] | 20 nM |  | 

The next lines start with results.

Row | Ki (CB2 receptor) | SI: selectivity index for CB2 (CB2 receptor) | SMILES | further results
4 |  | 309 | CCN(CC)c1ccc(CN(c2ccc(Cl)cc2)S(=O)(=O)c2cccc(C)c2)cc1 [Compound 86, N-(4-Chlorophenyl)-N-(4-(diethylamino)benzyl)-3-methylbenzenesulfonamide] | 
5 |  | 137 | CCN(CC)c1ccc(CN(c2ccc(C)cc2)S(=O)(=O)c2ccc(Cl)cc2)cc1 [Compound 92, 4-Chloro-N-(4-(diethylamino)benzyl)-N-(p-tolyl)benzenesulfonamide] | 
